Measurements as given in PMC11129182, “Development of Inhibitors, Probes, and PROTAC Provides a Complete Toolbox to Study PARK7 in the Living Cell” (Journal of Medicinal Chemistry, 2024).

Assays:
DUBs = experiment: Activity-based DUB profiling with Rho-Ub-PA probe in HEK293T cells; type: cell-based, human; conditions: 5 µM, 24 h
Experimental: Figure S3. Activity evaluation of inhibitors against DUBs in HEK293T cells. (A ) Inhibitors from structure modification. (B) Inhibitors from HTS. HEK293T cells were […]
incubation with Rho- Ub-PA probe for 30 min at 37 °C. Samples were resolved by SDS - […]
and visualized by fluorescence scanning on a Typhoon FLA 9500 (GE Healthcare Life […]
Nitrocellulose membranes and Western blot analysis.
(1 picture or pasted object on this page, not shown here)

[1] = system: other proteins of A549 cells; experiment: TMT-based global proteomic profiling in A549 cells, other proteins; type: cell-based, Homo sapiens; conditions: 5 μM, 8 h
Experimental: A549 cells were seeded into 10 cm plates in 10 mL of media. […] Cells were lysed using a 5% SDS lysis buffer (100 mM Tris-HCl, pH 7.6) and were incubated at 95 °C for 4 min. Protein determination was performed using the Pierce BCA Gold protein assay. 100 μg of protein of each sample was reduced and alkylated, and excess iodoacetamide was quenched using 5 mM TCEP, 15 mM iodoacetamide, and 10 mM DTT, respectively. The protein was pelleted down using chloroform/methanol precipitation, and the resulting pellets were resolubilized in 40 mM HEPES pH 8.4. […] The Pierce BCA Gold protein assay was used to determine the peptide concentration. The peptides were labeled with TMTpro Label Reagents in a 1:4 ratio by mass (peptides/TMT reagents) for 1 h at RT. Five μL of 6% hydroxylamine was added to quench excess TMT reagent and incubated for 15 min at RT. Samples were pooled and lyophilized. The sample was subsequently fractionated on an Agilent 1200 series HPLC system (Agilent Technologies). 75 μg of the pooled sample was dissolved in solvent A (10 mM NH4HCO3, pH 8.4), injected onto, and eluted from an Agilent Eclipse Plus C18 2.1 × 150 mm 3.5 μm column (Agilent Technologies). The gradient was run from 2 to 90% solvent B (10 mM NH4HCO3, pH 8.4 final concentration, 20/80 water/acetonitrile v/v) in 30 min at a flow rate of 200 μL/min. […]

SMILES	inhibition of DUBs in cells (DUBs)	TM7SF3 protein level (total proteome profiling) [1]
N#CN1CC[C@@H](C(=O)Nc2nc3c(s2)CN(C(=O)c2cc(-n4ccnn4)ccc2F)CC3)C1 [Compound 84, (R)-1-Cyano-N-(5-(2-fluoro-5-(1H-1,2,3-triazol-1-yl)benzoyl)-4,5,6,7-tetrahydrothiazolo[5,4-c]pyridin-2-yl)pyrrolidine-3-carboxamide]	did not show interference with the activity of any DUB	downregulated
N#CN1CC[C@@H](C(=O)Nc2nc3c(s2)CN(C(=O)c2cccc(S(=O)(=O)N4CCOCC4)c2)CC3)C1 [Compound 340, (R)-1-Cyano-N-(5-(3-(morpholinosulfonyl)benzoyl)-4,5,6,7-tetrahydrothiazolo[5,4-c]pyridin-2-yl)pyrrolidine-3-carboxamide]	did not show interference with the activity of any DUB	
